In patent US20260284049A1 (BRISTOL-MYERS SQUIBB COMPANY, priority 2023, published 2026):
Where “and” joins values, the source holds several entries; their conditions need not be identical. Equal values may be shown once.

What was measured:
thrombin generation = experiment: AXIOMATIC-TKR: Thrombin Generation Assay (TGA): peak height, ETP, lag time; assay type: in vivo, human; conditions: 25 mg QD to 200 mg BID
[1] = system: participants with ischemic stroke or TIA
[2] = system: participants undergoing primary unilateral elective TKR surgery; conditions: in vivo

For `C[C@@H]1CCC[C@H](n2cnc(-c3cc(Cl)ccc3-n3cc(Cl)nn3)cc2=O)c2cc(ccn2)-c2c(cnn2C(F)F)NC1=O` [milvexian, (5R,9S)-9-(4-(5-chloro-2-(4-chloro-1H-1,2,3-triazol-1-yl)phenyl)-6-oxopyrimidin-1(6H)-yl)-2^1-(difluoromethyl)-5-methyl-2^1H-3-aza-1(4,2)-pyridina-2(5,4)-pyrazolacyclonaphan-4-one], which TGA lag time (thrombin generation) is on record?
Its TGA lag time is “dose related prolongation”.

What about the “Ischemic Stroke Incidence Rate (n/N %)” value ([1]; 25 mg QD, up to Day 21) of the same compound?
The value was 4.6%.

And the “Subjects With Ischemic Stroke n” value ([1]; 25 mg QD, up to Day 21)?
The value was 15.

What about the “Symptomatic Stroke Events: Incidence Rate (n/N %)” value ([1]; 25 mg QD, up to Day 21) of the same compound?
Its value is 4.6%.

What about the “Symptomatic Stroke Events: Subjects With Event n” value ([1]; 25 mg QD, up to Day 21) of the same compound?
The value was 15.

What about the “Ischemic Stroke n” value ([1]; 25 mg QD, up to Day 90) of the same compound?
The value was 15.

And the “primary endpoint (new ischemic stroke and new covert brain infarction on MRI at Day 90)” value ([1]; human, in vivo)?
The value was “numerically lower”.

And the “Total VTE, %” value [2]?
The value was 13.6% and 12.2%.

And the “Total VTE, participants n” value [2]?
Its value is 108.

What about the “VTE reduction compared with enoxaparin” value [2] of the same compound?
Its value is “superior to enoxaparin”.

And the “efficacy compared with enoxaparin” value [2]?
The value was “comparable efficacy to enoxaparin”.

And the “total VTE compared to enoxaparin” value [2]?
The value was “statistically significant reductions”.
